Results from ChEMBL document CHEMBL1131894, “N-phenylalkyl-substituted tropane analogs of boat conformation with high selectivity for the dopamine versus serotonin transporter” (Bioorg Med Chem Lett, 1999).

Sequences of proteins named here, by UniProt entry; tags and fusion partners are left off.
UniProt P31652, whole entry: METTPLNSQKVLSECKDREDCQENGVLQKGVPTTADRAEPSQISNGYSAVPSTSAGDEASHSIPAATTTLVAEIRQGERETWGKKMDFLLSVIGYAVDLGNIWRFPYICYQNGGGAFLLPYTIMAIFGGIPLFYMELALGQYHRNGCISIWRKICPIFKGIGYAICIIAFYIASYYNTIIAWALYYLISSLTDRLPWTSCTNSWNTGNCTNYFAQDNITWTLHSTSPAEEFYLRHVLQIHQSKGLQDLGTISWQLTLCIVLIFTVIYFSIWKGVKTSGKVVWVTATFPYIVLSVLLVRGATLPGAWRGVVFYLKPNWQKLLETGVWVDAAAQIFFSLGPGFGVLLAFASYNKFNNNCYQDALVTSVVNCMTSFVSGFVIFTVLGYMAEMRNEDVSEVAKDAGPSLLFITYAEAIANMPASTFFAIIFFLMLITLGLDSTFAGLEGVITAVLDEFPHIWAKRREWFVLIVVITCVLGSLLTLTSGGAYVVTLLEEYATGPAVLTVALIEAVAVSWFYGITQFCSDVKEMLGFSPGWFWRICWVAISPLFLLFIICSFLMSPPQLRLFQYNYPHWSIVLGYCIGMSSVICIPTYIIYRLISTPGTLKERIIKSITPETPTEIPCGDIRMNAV

Target: Sodium-dependent serotonin transporter (Rattus norvegicus, UniProt P31652)
Test: Inhibition of [3H]5-HT uptake at striatal nerve endings by serotonin transporter

Compound: COC(=O)[C@H]1[C@@H](OC(=O)c2ccccc2)C[C@@H]2CC[C@H]1N2C [COCAINE]
- Ki: 160 nM
